The results in this text go back to PubChem BioAssay AID624354 (Sanford-Burnham Center for Chemical Genomics, 2012).

The list shows a part of the results, in another mix than the full data. Activity calls are given as the source filed them.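 How the source made its calls: active means compounds causing at least 50% loss of cell viability in the single-dose screen, relative to plate controls; inactive means the rest.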

The nature of this experiment: viability loss with TRAIL in NB7+C8 cells, primary screen, TRAIL sensitizer project, cell-based, ATPlite luminescence (AID 624354). Conditions: at 10 µM, active compounds read high. Background: Cellular ATP, detected with luciferase, serves as a proxy for viable cell number.
On to `CC(C)c1ccc(NC2CCN(C(=O)OC(C)(C)C)CC2)cc1`, for which the inhibition (viability loss, TRAIL sensitization) was inactive: 1.05%.
In the case of `CCCCn1nnnc1C(c1ccccc1OC(F)(F)F)N1CCC(n2c(=O)[nH]c3ccccc32)CC1` (centres undefined), the inhibition (viability loss, TRAIL sensitization) is inactive: 19.5%.
In the case of `COc1ccc(CN(CCCl)CCCl)cc1Cl` it was inactive: 0.148%.
In the case of `CN(C)c1cccc(C(=O)NCC2(N3CCCCC3)CCCCC2)c1` it was inactive: 3.47%; in that of `COc1cc(OC)c(C(=O)NCC2(N(C)C)CCCCC2)cc1OC`, inactive: -5.41%; in that of `CCC(c1nnnn1C(C)(C)C)N1CCC(n2c(=O)[nH]c3ccccc32)CC1` (centres undefined), inactive: 12.9%.
In the case of `O=C(NCC1(N2CCOCC2)CCCCC1)c1cc(F)c(F)cc1Cl` it was inactive: -7.63%; in that of `CCCCn1nnnc1C(c1ccnc2ccccc12)N1CCC(n2c(=O)[nH]c3ccccc32)CC1` (centres undefined), inactive: -0.685%; in that of `CN1CCC(Nc2cccc(F)c2)CC1`, inactive: 1.43%.
On to `O=C(NCC1(N2CCCCC2)CCCCC1)c1cncc(Br)c1`, for which the inhibition (viability loss, TRAIL sensitization) is inactive: 2.32%.
In the case of `COc1ccc(C(c2nnnn2C2CCCC2)N2CCC(n3c(=O)[nH]c4ccccc43)CC2)cc1` (centres undefined), the inhibition (viability loss, TRAIL sensitization) was inactive: -16.4%.
Regarding `Cc1ccc(C(=O)NCC2(N(C)C)CCCCC2)o1`, the inhibition (viability loss, TRAIL sensitization) was inactive: 7.25%.
Under `CCCOc1ccc(C(=O)NCC2(N(C)C)CCCCC2)cc1OC` stands inactive: -12.9%.
Under `CC(C)(C)n1nnnc1C(c1ccccc1OC(F)(F)F)N1CCC(n2c(=O)[nH]c3ccccc32)CC1` (centres undefined) stands inactive: 1.56%; under `O=C(NCC1(N2CCCCC2)CCCCC1)c1ccc(OC(F)F)cc1`, inactive: 5.47%.
Consider `CCN1CCC(Nc2ccc(Cl)cc2)CC1`, for which the inhibition (viability loss, TRAIL sensitization) was inactive: 9.74%.
Consider `O=c1[nH]c2ccccc2n1C1CCN(C(c2ccccc2OC(F)(F)F)c2nnnn2C2CCCC2)CC1` (centres undefined), for which the inhibition (viability loss, TRAIL sensitization) is inactive: 11.7%.
As for `N#CC1(Nc2ccccc2)CCN(CCc2ccccc2)CC1`, the inhibition (viability loss, TRAIL sensitization) is inactive: 5.1%.
Under `CSc1ccc(C(=O)NCC2(N3CCOCC3)CCCCC2)cc1` stands inactive: -4.97%; under `O=C(NCC1(N2CCCCC2)CCCCC1)c1cccc([N+](=O)[O-])c1`, inactive: -4.3%.
Under `O=C(NCC1(N2CCCCC2)CCCCC1)c1cccc(C(F)(F)F)c1` stands inactive: 19.5%; under `COc1cc(C(=O)NCC2(N3CCCCC3)CCCCC2)ccc1OC(F)F`, inactive: 7.1%; under `O=C(NCC1(N2CCOCC2)CCCCC1)c1cc(=O)[nH]c2ccccc12`, inactive: -3.31%.
Regarding `CN1CCN(CCOC(=O)C(O)(c2ccccc2)c2ccccc2)CC1`, the inhibition (viability loss, TRAIL sensitization) was inactive: 4.12%.
Under `COc1ccc(NC2CCN(C(=O)OC(C)(C)C)CC2)cc1` stands inactive: 5.22%.
Under `CC(C)c1ccc(C(=O)NCC2(N3CCOCC3)CCCCC2)cc1` stands inactive: 0.5%; under `CCCCn1nnnc1C(c1cccc2ccccc12)N1CCC(n2c(=O)[nH]c3ccccc32)CC1` (centres undefined), inactive: -9.16%; under `CC(C)(C)n1nnnc1C(c1ccccc1)N1CCC(n2c(=O)[nH]c3ccccc32)CC1` (centres undefined), inactive: -13.1%.
`O=C1CCN(Cc2ccccc2)CC1`: the inhibition (viability loss, TRAIL sensitization) is inactive: -9.3%.
As to `CCOc1ccc(C)cc1CN(CCCl)CCCl`, the inhibition (viability loss, TRAIL sensitization) is inactive: 3.44%.
For `O=P1(N(CCCl)CCCl)SCCCS1`, the inhibition (viability loss, TRAIL sensitization) was inactive: -3.63%.
For `CCCCn1nnnc1C(c1cc2ccccc2o1)N1CCC(n2c(=O)[nH]c3ccccc32)CC1` (centres undefined), the inhibition (viability loss, TRAIL sensitization) is active: 53.4%.
As to `CCCCOc1ccc(C(=O)NCC2(N3CCOCC3)CCCCC2)cc1`, the inhibition (viability loss, TRAIL sensitization) is inactive: 13.8%.
In the case of `O=C(NCC1(N2CCCCC2)CCCCC1)c1ccc(F)cc1` it was inactive: 15.9%; in that of `COc1ccc(NC2CCN(CCc3ccccc3)CC2)c(OC)c1`, inactive: 27.1%; in that of `CCOC(=O)N1CCC(Nc2ccc(F)cc2)CC1`, inactive: 4.88%.
Take `O=c1[nH]c2ccccc2n1C1CCN(C(c2ccccc2)c2nnnn2C2CCCCC2)CC1` (centres undefined): the inhibition (viability loss, TRAIL sensitization) was inactive: 14.7%.
In the case of `CCOC(=O)N1CCC(Nc2cccc(C)c2)CC1`, the inhibition (viability loss, TRAIL sensitization) is inactive: -3.13%.
Under `COc1cc(C(=O)NCC2(N(C)C)CCCCC2)ccc1OC(F)F` stands inactive: -2.16%.
As to `O=c1[nH]c2ccccc2n1C1CCN(C(c2cccc3ccccc23)c2nnnn2C2CCCC2)CC1` (centres undefined), the inhibition (viability loss, TRAIL sensitization) was inactive: 29.3%.
In the case of `COc1ccc(C(=O)NCC2(N3CCCCC3)CCCCC2)cc1` it was inactive: 14.2%; in that of `COc1ccc(C(=O)NCC2(N3CCCCC3)CCCCC2)c(OC)c1OC`, inactive: 3.5%; in that of `CC(C)(C)OC(=O)N1CCC(N(C(=O)c2ccccc2)c2ccc(F)cc2)CC1`, inactive: -7.8%.
Under `CCC(c1nnnn1C1CCCC1)N1CCC(n2c(=O)[nH]c3ccccc32)CC1` (centres undefined) stands inactive: -10.1%; under `O=C(NCC1(N2CCCCC2)CCCCC1)c1ccc(=O)[nH]c1`, inactive: 1.2%.
As to `CCCCn1nnnc1C(CC)N1CCC(n2c(=O)[nH]c3ccccc32)CC1` (centres undefined), the inhibition (viability loss, TRAIL sensitization) is inactive: -16.6%.
`O=C(NCC1(N2CCCCC2)CCCCC1)c1cccs1`: the inhibition (viability loss, TRAIL sensitization) was inactive: 10.6%.
Under `CCCCn1nnnc1C(c1cccs1)N1CCC(n2c(=O)[nH]c3ccccc32)CC1` (centres undefined) stands inactive: 8.32%; under `CSc1ccccc1C(=O)NCC1(N2CCCCC2)CCCCC1`, inactive: -2.83%; under `Cc1cccc(NC2(C#N)CCN(Cc3ccccc3)CC2)c1`, inactive: -9.28%.
Under `O=C(NCC1(N2CCCCC2)CCCCC1)c1ccc(Cl)nc1` stands inactive: -9.46%; under `O=c1[nH]c2ccccc2n1C1CCN(C(c2ccccc2OC(F)(F)F)c2nnnn2C2CCCCC2)CC1` (centres undefined), inactive: 5.27%.
Regarding `Cc1cc(C)cc(N(C(=O)c2ccccc2)C2CCN(C(=O)OC(C)(C)C)CC2)c1`, the inhibition (viability loss, TRAIL sensitization) was inactive: -4.25%.
Under `O=C(NCC1(N2CCOCC2)CCCCC1)c1cc2ccccc2o1` stands inactive: 7.1%.
